As usually defined, the Kd is the concentration at which binding is half-saturated.

The experiment has as its target wild type biotinylated TTR (Homo sapiens (Human), UniProt P02766). The experiment can be described thus: Surface plasmon resonance (SPR) assay for TTR-ligand interaction. Conditions: 25° C., one-to-one model; read-out: Kd (SPR, binding kinetics). As for the experimental part:
To an ice-cold solution of TTR (20 μM) in PBS was added EZ-Link Sulfo-NHS-LC-Biotin at a ratio of ˜2:1 (biotin:TTR) (minimal biotinylation) and the solution was incubated at room temperature. After 1 hour, un-reacted biotin was removed by passing the sample over a fast (FPLC) desalting column (Superdex™ 75) equilibrated with PBS.
SPR measurements were performed at 25° C. using a Biacore T100 (GE Healthcare) instrument equilibrated in 1% DMSO in PBS as a running buffer. After pretreatment of the streptavidin-coated chip (Sensor Chop SA, Biacore), ˜4000 RU biotinylated TTR was immobilized on one channel leaving the second flow channel as a blank (streptavidin alone) control. For binding measurements, HTS hits were diluted in running buffer (1% DMSO/PBS) and different dilution series were flowed over the chip at 50 μL/min ([…], 600 s wash). A zero concentration sample was used as a negative control. The kinetic data was fitted to a one-to-one binding model using Biacore T100 evaluation software.
(Surface plasmon resonance follows binding to a sensor surface in real time, without labels.)

For the compound `O=C(c1cc(O)c(O)c([N+](=O)[O-])c1)c1ccccc1F` [Ro 41-0960, reference compound], the Kd was 56 ± 4.14 nM.

Source of the values: US8877795B2, “Identification of stabilizers of multimeric proteins” (The Board of Trustees of the Leland Stanford Junior …, priority 2010, dated 2014).
